The nature of data set [1]: In vitro liver microsomal stability, human liver microsomes. To be noted: 1 μM, 0.5 mg/mL, NADPH, up to 60 minutes.
Data set [2] can be described thus: In vitro liver microsomal stability, mouse liver microsomes. (Liver microsomes are vesicles of endoplasmic reticulum, rich in cytochrome P450 enzymes.)

A word on the half-life: it is how long it takes for the measured level to halve. Lower therefore signals rapid decline.

For `CNC(=O)c1ccc(N2CCN(Cc3ccc4c([nH]c(=O)c5cccnc54)c3F)CC2)c(F)n1` [Compound 15], the “CLint(liver)” value in data set [1] is on record as less than 8.6 mL/min/kg; in data set [2] it was 74 mL/min/kg. Further, the T1/2 in data set [1] is more than 2.42 h; in data set [2], 1.28 h.

With `[2H]C([2H])([2H])NC(=O)c1ccc(N2CCN(Cc3ccc4c([nH]c(=O)c5cccnc54)c3F)CC2)c(F)n1` [Compound 29], the half-life at 1 μM in data set [2] was more than 2.42 h.

The values are drawn from patent US20250295642A1, “FLUOROQUINOXALINONE DERIVATIVE FOR SELECTIVELY INHIBITING PARP1” (MEDSHINE DISCOVERY INC., priority 2022, published 2025).
